The chains behind the UniProt entries cited, without tags or fusion partners.
UniProt P19327, whole entry: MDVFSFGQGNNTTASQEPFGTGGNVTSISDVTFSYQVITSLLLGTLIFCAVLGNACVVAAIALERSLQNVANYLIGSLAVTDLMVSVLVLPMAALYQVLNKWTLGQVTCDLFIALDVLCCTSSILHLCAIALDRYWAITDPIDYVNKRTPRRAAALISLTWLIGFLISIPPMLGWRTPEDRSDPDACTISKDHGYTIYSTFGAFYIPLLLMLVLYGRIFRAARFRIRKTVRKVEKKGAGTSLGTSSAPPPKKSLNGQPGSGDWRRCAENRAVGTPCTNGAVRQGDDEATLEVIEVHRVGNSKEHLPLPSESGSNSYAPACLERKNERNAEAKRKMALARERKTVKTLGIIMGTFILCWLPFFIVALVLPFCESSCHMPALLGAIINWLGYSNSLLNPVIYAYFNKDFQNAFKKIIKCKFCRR

According to ChEMBL document CHEMBL1139612 (Bioorg Med Chem Lett, 2005):

Molecular target: 5-hydroxytryptamine receptor 1A (Rattus norvegicus, UniProt P19327)
Test: Inhibitory concentration against 5-hydroxytryptamine 1A receptor in rat hippocampus membrane using [3H]-8-OH-DPAT as radioligand
Format: cell membranes

SMILES: Cl.O=C1c2ccccc2OC=C(Cl)N1CCCCN1CCC(O)(c2ncccn2)CC1
- IC50: 2650 nM
